The results in this text go back to patent US10093635B2, “MAGL inhibitors” (ABIDE THERAPEUTICS, INC., priority 2016, dated 2018).

Amino acid sequences for entries named in this document (tags omitted).
UniProt O35678, whole entry: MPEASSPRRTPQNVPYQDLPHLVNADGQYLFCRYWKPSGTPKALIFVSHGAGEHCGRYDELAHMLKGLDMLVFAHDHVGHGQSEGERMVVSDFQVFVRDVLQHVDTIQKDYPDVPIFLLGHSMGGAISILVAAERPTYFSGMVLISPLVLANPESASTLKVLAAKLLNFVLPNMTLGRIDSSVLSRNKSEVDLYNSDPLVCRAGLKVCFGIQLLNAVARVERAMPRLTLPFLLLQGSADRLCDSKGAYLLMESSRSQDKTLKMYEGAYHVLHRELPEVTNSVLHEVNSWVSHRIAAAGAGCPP

The assay addresses MGLL (Mus musculus (Mouse), UniProt O35678). As to the kind of experiment: in vivo. The note with it: po, read-out: MGLL % Inhibition at 5 mg/kg (Mouse).

SMILES strings stand for the structures.

Regarding `CS(=O)(=O)N(CCNc1cc(Cl)ccc1CN1CCN(C(=O)OC(C(F)(F)F)C(F)(F)F)CC1)CC(=O)O` [Example 12, N-(2-((5-Chloro-2-((4-(((1,1,1,3,3,3-hexafluoropropan-2-yl)oxy)carbonyl)piperazin-1-yl)methyl)phenyl)amino)ethyl)-N-(methylsulfonyl)glycine], the inhibition at 5 mg/kg lay in the range of 25 to 75%.
